Results from paper PMC5520972 (Cancer chemotherapy and pharmacology, 2017).

Settings: day 8

Structure (SMILES): CS(=O)(=O)c1ccc(C(=O)Nc2ccc(Cl)c(-c3ccccn3)c2)c(Cl)c1 [vismodegib]
- Correlation of vismodegib Css with AST or total bilirubin values: not correlated
